Data taken from patent publication US12264139B2, “Aryl sulfonamides as BLT1 antagonists” (Merck Sharp & Dohme LLC, priority 2015, dated 2025).
Like-named read-outs stand apart in the source and are kept apart here.

By UniProt entry, the sequences of proteins in these tests, tags left out. Where a name states a change or a piece, a line headed by the entry shows the natural chain unless it says otherwise.
UniProt Q15722: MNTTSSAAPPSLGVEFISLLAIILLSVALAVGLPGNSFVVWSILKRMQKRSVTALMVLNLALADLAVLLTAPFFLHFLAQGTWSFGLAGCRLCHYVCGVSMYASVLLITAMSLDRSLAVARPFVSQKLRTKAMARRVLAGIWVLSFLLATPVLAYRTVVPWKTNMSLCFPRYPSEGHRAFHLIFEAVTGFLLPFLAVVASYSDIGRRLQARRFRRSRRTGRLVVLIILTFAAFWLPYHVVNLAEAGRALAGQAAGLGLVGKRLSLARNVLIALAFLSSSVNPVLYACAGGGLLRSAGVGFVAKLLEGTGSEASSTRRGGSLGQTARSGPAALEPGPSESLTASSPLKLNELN

Target: T1, human BLT1 receptor (Homo sapiens, UniProt Q15722)
T1 construct: expressed in transfected cells; host or cells: HEK293
Test: BLT-1 cAMP Assay
Format: cell-based
Settings: HEK293 cells recombinantly expressing human BLT1, antagonist activity vs forskolin 4 μM and LTB4 2 nM, cAMP (CisBio kit)
Procedure: The ability of compounds to antagonize the human BLT1 receptor was determined using a kit to measure changes in intracellular cyclic AMP levels (cAMP dynamic assay kit, Cisbio Cat. No. 62AM4PEC). […] The cell suspension was centrifuged at 200×g for 10 min and then resuspended in fresh assay medium to a density of 2.5×10^5 cells/mL. […] All subsequent liquid additions were performed using a BIORAPTR (FRD; Beckman Coulter). Next, 5 μL of cell suspension was added and incubated for 20 min. at 37° C. and 5% CO2 in a humidified plastic tray.
The levels of cAMP were detected using the CisBio kit following the manufacturer's instructions: cAMP-d2 vial was reconstituted with distilled water and then diluted accordingly with conjugate & lysis buffer. 5 µL of cAMP-d2 working solution was added to all of the wells of the assay plate. cAMP-Cryptate vial was reconstituted with distilled water and then diluted accordingly with conjugate & lysis buffer. 5 µL of cAMP-Cryptate working solution were added to the assay plate. The assay plate was shaken for 3 minutes and incubated at room temperature for 45 minutes, then read on Perkin Elmer Envision. cAMP standard curve and fit data were plotted using a 4 parameter dose response curve fitting algorithm to fit curve. […] After normalization to treated and untreated controls, the percent effect of signal at each compound concentration was calculated. […]

EC50 (EC50 (nM) BLT-1 cAMP Assay)	EC50 (read-out: EC50 (nM) BLT-1 cAMP Assay)	SMILES
275 nM	–	O=S(=O)(Nc1ccccc1-c1ccc2c(c1)OC[C@@H](Cc1ccnn1-c1ccccc1)[C@@H]2O)C(F)(F)F (relative stereo) [Example 49, (2-((3,4-trans)-4-hydroxy-3-((1-phenyl-1H-pyrazol-5-yl)methyl)chroman-7-yl)phenyl)((trifluoromethyl)sulfonyl)amide]
–	870 nM	O=S(=O)(Nc1ccccc1-c1ccc2c(c1)OC[C@@H](Cc1ccnn1-c1ccccc1)[C@@H]2O)C(F)(F)F (racemic) [Example 48, 1,1,1-Trifluoro-N-(2-((rac-trans)-4-hydroxy-3-((1-phenyl-1H-pyrazol-5-yl)methyl)chroman-7-yl)phenyl)methanesulfonamide]
